The test has as its target T1, Proteinase-activated receptor 2 (Homo sapiens, UniProt P55085).
T1 sequence (P55085 whole entry): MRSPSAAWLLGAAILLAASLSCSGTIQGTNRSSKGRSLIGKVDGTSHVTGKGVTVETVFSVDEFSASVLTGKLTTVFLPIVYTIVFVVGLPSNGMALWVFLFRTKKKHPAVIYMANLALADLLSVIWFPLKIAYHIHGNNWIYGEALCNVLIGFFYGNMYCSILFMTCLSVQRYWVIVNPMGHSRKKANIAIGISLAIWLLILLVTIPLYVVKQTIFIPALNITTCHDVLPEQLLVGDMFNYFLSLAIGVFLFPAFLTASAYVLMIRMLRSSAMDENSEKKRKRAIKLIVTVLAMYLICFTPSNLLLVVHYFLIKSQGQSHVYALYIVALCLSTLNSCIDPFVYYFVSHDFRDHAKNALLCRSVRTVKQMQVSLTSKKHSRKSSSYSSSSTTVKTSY
As to the kind of experiment: Agonist activity at PK1-tagged PAR2 (unknown origin) expressed in HEK293 cells assessed as induction of beta-arrestin recruitment incubated for 90 mins by Pathhunter chemiluminescent assay relative to 2f-LIGRLO-NH2. It is filed as cell-based. The conditions noted are these: 1.5 h. In a few lines: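 PathHunter enzyme-complementation read-out of β-arrestin-2 recruitment to PAR2 in HEK293 cells. Efficacy is expressed relative to reference 2f-LIGRLO-NH2. Data are mean ± SEM of at least three independent experiments run in duplicate.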
On the technique in general: Activated receptors often draw arrestin, which recruitment assays turn into a signal.

The values that follow come from ChEMBL document CHEMBL4616713, “Discovery of Novel Nonpeptidic PAR2 Ligands” (ACS Med Chem Lett, 2020).

For orientation: Emax means the greatest response seen or fitted, relative to the assay's reference. Turning to `NC(=O)Cc1ccccc1CNC(=O)Cc1ccccc1CNC(=O)c1ccno1`, the maximal response (Emax) was less than 5%.
